Measured values from patent publication US20230053493A1, “ONE STEP METHODS, KITS, AND SYSTEMS FOR THE MEASUREMENT OF CONCENTRATIONS OF UNBOUND BILIRUBIN IN BIOLOGICAL FLUIDS” (priority 2019, published 2023).
Read-outs that look alike come from different tables or passages of the source.

Sequences of proteins named here, by UniProt entry; tags and fusion partners are left off. Residues count along the entry.
UniProt P02768, 25-609: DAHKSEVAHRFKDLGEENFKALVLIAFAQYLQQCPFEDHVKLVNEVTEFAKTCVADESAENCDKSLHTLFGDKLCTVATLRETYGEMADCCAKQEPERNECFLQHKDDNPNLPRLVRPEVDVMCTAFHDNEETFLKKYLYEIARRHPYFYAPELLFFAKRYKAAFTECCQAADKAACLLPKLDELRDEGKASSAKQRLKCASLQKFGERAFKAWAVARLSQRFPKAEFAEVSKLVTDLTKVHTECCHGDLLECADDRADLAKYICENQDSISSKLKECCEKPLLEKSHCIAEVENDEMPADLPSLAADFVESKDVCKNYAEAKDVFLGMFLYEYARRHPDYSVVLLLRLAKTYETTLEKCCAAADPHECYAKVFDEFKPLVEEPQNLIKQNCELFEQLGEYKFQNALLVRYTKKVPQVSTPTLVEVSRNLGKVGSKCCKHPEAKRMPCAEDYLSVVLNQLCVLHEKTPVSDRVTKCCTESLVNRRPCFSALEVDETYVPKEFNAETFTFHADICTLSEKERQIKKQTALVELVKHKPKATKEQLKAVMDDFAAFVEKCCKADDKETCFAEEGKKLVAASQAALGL

Biological target: Albumin (Homo sapiens, UniProt P02768)
Settings: adult serum spiked with bilirubin, cefazolin 3.76 mM

For `Cc1nnc(SCC2=C(C(=O)O)N3C(=O)[C@@H](NC(=O)Cn4cnnn4)[C@H]3SC2)s1` [Cefazolin], the “UB” value (Arrows UB2 analyzer (52 fold dilution)) was 26.8 nM and the “UB” value (UBCheck (no dilution)) was 148.7 nM.
